# Test system: Mycobacterium smegmatis A1408G mutant
compound,measurement,setting,value
"CCC[C@H]1[C@H](O)[C@@H](N)[C@@H](O[C@H]2[C@H](O[C@@H]3O[C@H](CO)[C@@H](O[C@H]4O[C@@H](CN)[C@@H](O)[C@H](O)[C@H]4N)[C@H]3O)[C@@H](O)[C@H](N)C[C@@H]2N)O[C@@H]1CO [Compound 5, 4’-deoxy-4’-propylparomomycin]",Antibacterial activity (MIC) A1408G mutant M. smegmatis,A1408G mutant,16 to 32 µg/mL
same,Activity Loss = MIC Mutant/MIC wild-type,M. smegmatis A1408G vs wild-type,100–200
